Experimental findings from patent publication US12815635B2, “Aromatic sulphonamides derivatives that inhibits PDI A1, their synthesis and use” (dated 2026) are described below.

Bounds are passed on as bounds.

Experiment [1] is described as follows: Rat model of arterial thrombosis (electrical stimulation of carotid artery).
Experiment [2] relates to Lewis Lung Carcinoma (LLC). In words: Murine model of Lewis Lung Carcinoma (LLC), tumor volume. The following applies: for anti-cancer activity in vivo: LLC model.
In experiment [3] the test system is MCF-7 cells. In words: Antiproliferative MTT assay, 72 h, with or without estradiol, MCF-7. The following applies: after addition of estradiol. On the technique in general: Tetrazolium dyes change colour on reduction, which living cells bring about.
Experiment [4] concerns MDA-MB-231 cells. The experiment is described as follows: Antiproliferative MTT assay, 72 h, with or without estradiol, MDA-MB-231. To be noted: simultaneous incubation with estradiol.
Experiment [5] has as its system human cancer cell lines. In words: Antiproliferative assay in normal condition, all cell lines (summary of Tables 3 and 4). The following applies: 72 h.
For experiment [6], the system named is HT-29 cells. In words: Long-term colony formation (clonogenic) assay, HT-29. The following applies: FIGS. 1A and 1B.
The test system of experiment [7] is CaCo-2 cells. The experiment is described as follows: Cell cycle analysis, CaCo-2. The following applies: FIG. 1C.
The subject of experiment [8] is HT-29 cells. In words: Cell cycle analysis, HT-29. To be noted: FIG. 1C.
The test system of experiment [9] is HT-29 cells. The experiment is described as follows: Cell death analysis, HT-29. To be noted: FIG. 1D.
The subject of experiment [10] is CaCo-2 cells. In words: Caspase-3/7 activity assay, Caco-2. To be noted: 48 h treatment, FIG. 1E/1F.
The test system of experiment [11] is HT-29 cells. The experiment is described as follows: Caspase-3/7 activity assay, HT-29. The following applies: 24 and 48 h of incubation, FIG. 1E/1F.
The subject of experiment [12] is HT-29 cells. The experiment is described as follows: Antiproliferative sulforhodamine B assay, 72 h, HT-29. To be noted: normal (21% of oxygen). Background: Sulforhodamine B stains cellular protein and so reports cell mass.

As to `C[C@@H]1O[C@@H](OC[C@H]2O[C@@H](Oc3c(-c4ccc(O)c(O)c4)oc4cc(O)cc(O)c4c3=O)[C@H](O)[C@@H](O)[C@@H]2O)[C@H](O)[C@H](O)[C@H]1O`, the “anti-thrombotic effect / inhibition of thrombus formation in vivo” value (from here on “anti-thrombotic effect / inhibition”) in experiment [1] was “inhibited thrombus formation in vivo”.
In the case of `CCCCCc1ccc(S(=O)(=O)N2CC2C(=O)OC)cc1` (stereo not shown), the “anti-cancer activity in vivo” value in experiment [2] is “anti-cancer effects were also shown”.
As to `COC(=O)C1CN1S(=O)(=O)c1cccc2c(N(C)C)cccc12` (stereo not shown), the “change of sensitivity with estradiol, MCF-7” value in experiment [3] is “slight decrease in sensitivity after addition of estradiol”.
On to `COC(=O)C1CN1S(=O)(=O)c1ccc2cc(C)ccc2c1` (stereo not shown), for which the “anti-cancer activity in vivo” value in [2] is reported as “anti-cancer effects were also shown”.
With `CCCCCCc1ccc(S(=O)(=O)N2CC2C(=O)OC)cc1` (stereo not shown), in [4], the “change of antiproliferative activity with estradiol, MDA-MB-231” value is given as “slight decrease of antiproliferative activity”.
Regarding `O=c1c(O[C@@H]2O[C@H](CO)[C@@H](O)[C@H](O)[C@H]2O)c(-c2ccc(O)c(O)c2)oc2cc(O)cc(O)c12`, in [1], the “anti-thrombotic effect / inhibition” value is “less effective”.
Take `CCCCCCc1ccc(S(=O)(=O)N2CC2C(N)=O)cc1` (stereo not shown): the “change of antiproliferative activity with estradiol, MDA-MB-231” value in experiment [4] was “slight decrease of antiproliferative activity”.
Take `COC(=O)C1CN1S(=O)(=O)c1ccccc1` (stereo not shown): in [5], the “antiproliferative activity compared with reference LOC14” value is reported as “comparable to reference LOC14” and the “antiproliferative activity towards all cell lines” value is reported as “the most active towards all cell lines”. Further, the “inhibition of long-term colonies formation, HT-29 vs CaCo-2” value in experiment [6] was “much potent towards HT-29 than CaCo-2 cell line”. The “percentage of CaCo-2 cells in S cell cycle phase” value in [7] is “increased the percentage of CaCo-2 cells in S cell cycle phase”. Moreover, in experiment [8], the “HT-29 cells in G0/G1” value is recorded as “decreased HT-29 cells in G0/G1” and the “HT-29 cells in G2/M phase” value was “increased in G2/M phase”. Further, in [9], the “percentage of death HT-29 cells” value is “increased significantly the percentage of death HT-29 cells”. The “caspase 3/7 activity, Caco-2” value in experiment [10] is on record as “significantly increase caspase 3/7 activity”. For the same compound, the “caspase 3/7 activity, HT-29” value in [11] is “significantly increase caspase 3/7 activity”.
On to `CCCCc1ccc(S(=O)(=O)N2CC2C(=O)OC)cc1` (stereo not shown), for which, in experiment [2] (C-3257 75 mg/kg vs control), the “TTEST, day 10” value worked out at 0.36; the “TTEST, day 12” value worked out at 0.25; the “TTEST, day 14” value turned out to be 0.13; the “TTEST, day 16” value worked out at 0.04. Further, in [2] (C-3257 75 mg/kg vs control), the “TTEST, day 17” value stood at 0.03. Besides, the “anti-cancer activity in vivo” value in experiment [2] is listed as “possess anti-cancer activity in vivo”. The “anti-thrombotic effect / inhibition” value in experiment [1] is given as “anti-thrombotic effects”. The “dose dependence of effect on thrombus formation in vivo” value in experiment [1] (FIG. 6) is “dose-dependent effects”. Besides, the “dose at which effect on thrombus formation in vivo was significant and pronounced” value in experiment [1] (FIG. 6, dose as low as) was no more than 0.03 µmol/kg.
As for Cisplatin, the “IC50 HT-29 normal” value in experiment [12] stood at 2.82 ± 0.6 µg/mL.
With `COC(=O)C1CN1S(=O)(=O)c1ccc(C)cc1` (stereo not shown), in experiment [5], the “antiproliferative activity compared with reference LOC14” value was “comparable to reference LOC14” and the “antiproliferative activity towards all cell lines” value is “the most active towards all cell lines”. For the same compound, in experiment [2] (C-3161 50 mg/kg vs control), the “TTEST, day 10” value came out at 0.78; the “TTEST, day 12” value turned out to be 0.06; the “TTEST, day 14” value was 0.03; the “TTEST, day 16” value is given as 0.02. Besides, the “TTEST, day 17” value in experiment [2] (C-3161 50 mg/kg vs control) came to 0.01. The “anti-cancer activity in vivo” value in experiment [2] is “possess anti-cancer activity in vivo”.
